Experiments:
[1] = tested on: MIA PaCa-2; test: Tumor cell anti-proliferation assay (CTG assay), MIA PaCa-2; details: read-out: IC50 MIA PaCa-2, MIA PaCa-2, 3-days incubation
Experimental: (§1) Assay 3: Tumor Cell Anti-Proliferation Assay (CTG Assay)
(§2) Tested tumor cell lines (MIA PaCa-2, NCI-H358, and A549) were seeded to the 96-well plate for overnight, then cells were treated with the test compound at 9 serially diluted concentrations in triplicate. After 3-days incubation with the test compound, the CTG assay was performed to evaluate the IC50. The 3 cell lines were tested in the same manner. Cisplatin were used as the positive control.
(§3) Day −1: Cell Plating for Cell Lines
(§4) 1. Adjust the cell concentration to the appropriated number with the medium, and for each well of a 96-well plate, add 90 μl cell suspensions (Cell concentration will be adjusted according to the data base or density optimization assay). 2. Incubate the plates for overnight in humidified incubator at […] with 5% CO2.
(§5) Day 0: T0 Plate Reading and Compound Treatment
(§6) 3. Add 10 μL culture medium to each well of plate A for T0 reading.
(§7) 4. Equilibrate the plate and its content at RT for approximately 30 min.
(§8) 5. Add 50 μL CellTiter-Glo® Reagent to each well for T0 reading.
(§9) 6. Mix contents for 2 minutes on an orbital shaker to facilitate cell lysis.
(§10) 7. Allow the plate to incubate at room temperature for 10 minutes to stabilize the luminescent signal. […]
(§11) 9. Record luminescence using an Envision Multi Label Reader. […]
(§12) Day 3: Plate Reading for 3-Day Assay […]
(§13) 17. Record luminescence using an Envision Multi Label Reader. […]

The chains behind the UniProt entries cited, without tags or fusion partners. Residues count along the entry.
UniProt P01116, 1-188 isoform 2 G12C: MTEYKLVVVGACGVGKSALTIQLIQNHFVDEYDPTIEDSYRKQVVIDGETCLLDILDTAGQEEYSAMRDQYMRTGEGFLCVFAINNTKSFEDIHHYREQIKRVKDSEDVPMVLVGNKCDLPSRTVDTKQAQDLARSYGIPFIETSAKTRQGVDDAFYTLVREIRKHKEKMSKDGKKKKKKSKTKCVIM

[2] = target: KRAS G12C (Homo sapiens, UniProt P01116, G12C); test: KRAS GDP FI assay; details: read-out: KRAS GDP FI IC50; kinetic reading Ex580/Em620 for 120 min
[3] = tested on: A549; test: Tumor cell anti-proliferation assay (CTG assay), A549; details: read-out: IC50 A549, A549, 3-days incubation
Experimental: as §1, §2, §3, §4, §5, §6, §7, §8, §9, §10, §11, §12, §13

[4] = tested on: NCI-H358; test: Tumor cell anti-proliferation assay (CTG assay), NCI-H358; details: read-out: IC50 NCI-H358, NCI-H358, 3-days incubation
Experimental: as §1, §2, §3, §4, §5, §6, §7, §8, §9, §10, §11, §12, §13

[5] = Pharmacokinetics study in plasma of ICR mice, intravenous or oral administration; details: male ICR mice
Experimental: The purpose of this study is to determine the pharmacokinetics parameters in plasma of compounds in ICR mice following intravenous or oral administration.
The formulations were based on sponsor's recommendation and will be prepared by the Testing Facility.
Species and Strain: ICR Mice (Male)
Source: Sino-British SIPPR Lab Animal Ltd, Shanghai
Number of Animals: Ordered: 8; Needed: 6
The test article was be administered via a single IV or PO dosing.
IV group: Post-dose at 5 min, 15 min, 30 min, 1 h, 2 h, 4 h, 8 h and 24 h.
PO group: Post-dose at 15 min, 30 min, 1 h, 2 h, 4 h, 6 h, 8 h and 24 h.
30˜40 μL/sample. Samples were be placed in tubes containing heparin sodium and stored on ice until centrifuged.
The PK blood samples were centrifuged at approximately 6800G for 6 minutes at 2-8° C. and the resulting plasma was transferred to appropriately labeled tubes within 2 hour of blood collection/centrifugation and stored frozen at approximately −70° C.
Method development and biological samples analysis for the test articles (Sodium heparin anticoagulant) were be performed by Testing Facility by means of LC-MS/MS. The analytical results were be confirmed using quality control samples for intra-assay variation. The accuracy of >66.7% of the quality control samples were be between 80-120% of the known value(s).
Pharmacokinetics Analysis
Standard set of parameters including Area Under the Curve (AUC(0-t) and AUC(0-∞)), elimination half-live (T1/2), maximum plasma concentration (Cmax) and time to reach maximum plasma concentration (Tmax) and other parameters were be calculated using Phoenix WinNonlin 7.0 (Pharsight, USA) by the Study Director.

SMILES: C=CC(=O)N1C[C@H](C)N(c2nc(OC[C@@H]3CCCN3C)nc3c(=O)n(-c4cccc5cccc(C)c45)c(C(F)(F)F)nc23)[C@@H](C)C1
- IC50 [1]: 148 nM
- IC50 [2]: 127 nM
- IC50 [3]: > 10000 nM
- IC50 [4]: 62.7 nM
- AUC ([5]; IV, 1 mpk, plasma): 1,170.65 nM · h
- C0 ([5]; IV, 1 mpk, plasma): 435 nM
- Cl ([5]; IV, 1 mpk, plasma): 19.89 mL/min/kg
- T1/2 ([5]; IV, 1 mpk, plasma): 2.74 h
- Vd ([5]; IV, 1 mpk, plasma): 4.13 L/kg
- F ([5]; PO 10 mpk vs IV 1 mpk): 57.89%
- AUC ([5]; PO, 10 mpk, fasted, plasma): 6,776.89 nM · h
- Cmax ([5]; PO, 10 mpk, fasted, plasma): 793 nM
- T1/2 ([5]; PO, 10 mpk, fasted, plasma): 2.76 h
- Tmax ([5]; PO, 10 mpk, fasted, plasma): 1.00 h
